OPERA 2.9 data: vapor pressure values

Data: OPERA 2.9 data sets, kmansouri/OPERA on GitHub.

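The OPERA project collected these measurements from public sources as training and test data for property models. The files give a single number for a compound and property, which may rest on several reports. Method, purity and exact conditions of the single measurements are not given. A value may pool stereoisomers or salt forms, and the file does not say which form was measured. Unmarked limits or estimates from the upstream databases cannot be ruled out.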

Vapor pressures (log10 mmHg) refer to near room temperature, 15 to 30 °C; higher is more volatile.
"via" names the databases from which the curators took the value.

SMILES,log vapor pressure (log10 mmHg),via
CS(=O)(=O)c1ccc(C(=O)C2C(=O)CCCC2=O)c(Cl)c1COCC1CCCO1 (stereo not given),-11.58,eChemPortal
O=C([C@H]1CC[C@H](C(=O)N(CCO)CCO)CC1)N(CCO)CCO,-5.598,eChemPortal
COc1cc(/N=N/c2cc(S(=O)(=O)[O-])c3cccc(S(=O)(=O)[O-])c3c2)c(C)cc1/N=N/c1c(S(=O)(=O)[O-])cc2cc(Nc3ccccc3)ccc2c1O.[Na+].[Na+].[Na+],-13.67,eChemPortal
O=C(O)c1ccncc1,-7.629,eChemPortal
CCOC(=O)C1C2CCC(CC2)C1N.Cl (stereo not given),-5.077,eChemPortal
NCCCOCCOCCOCCCN.O=C(O)/C=C\C(=O)O.O=C(O)/C=C\C(=O)O,-5.941,eChemPortal
FC(F)(F)C(F)(F)C(F)(F)N(C(F)(F)C(F)(F)C(F)(F)F)C(F)(F)C(F)(F)C(F)(F)F,0.588,eChemPortal
CC(C)Nc1nc(N)nc(Cl)n1,-4.03,OCHEM
COC(=O)CCCCC(=O)O,-1.955,eChemPortal
C=CC(=O)OCC1(CC)COCOC1,-2.347,eChemPortal
CCCCCCCCSc1nc(Nc2cc(C(C)(C)C)c(O)c(C(C)(C)C)c2)nc(SCCCCCCCC)n1,-10,eChemPortal
O=C1CC[C@H]2CO[C@@H]1O2,-0.678,eChemPortal
O=C(OCCOC(=O)c1ccccc1)c1ccccc1,-7.377,eChemPortal
CN(C)C=C1OC(=O)C(C#N)=C1c1ccccc1,-5.801,OCHEM
Clc1ccc(-c2c(Cl)cc(Cl)cc2Cl)c(Cl)c1,-4.215,OCHEM
C/C(=C\c1ccc(C)cc1)CCC=O,-3.031,eChemPortal
Clc1cccc(-c2ccc(Cl)c(Cl)c2)c1,-3.975,OCHEM
Cc1ccc(N)cc1O,-5.033,eChemPortal
COC(=O)C=C(C)C,1.176,eChemPortal
N#CCC[Si](Cl)(Cl)Cl,-0.299,eChemPortal
BrCCCCCCCCCCBr,-2.429,OCHEM
CC(C)(C)c1cc(CCC(=O)O)cc(-n2nc3ccccc3n2)c1O,-11.66,eChemPortal
NCCN1CCNCC1,-1.413,eChemPortal
CC(C)CCCCCCCCCCOC(=O)CCCCC(=O)OCCCCCCCCCCC(C)C,-4.393,eChemPortal
CC(C)(C)C1=CC(=Cc2ccccc2)C=C(C(C)(C)C)C1=O,-4.28,eChemPortal
CC(=O)O[C@@]1(C(C)=O)CC[C@@H]2[C@H]3CCC4=CC(=O)CC[C@@]4(C)[C@@H]3CC[C@]21C,-12.82,eChemPortal
COC(=O)c1cc(Cl)ccc1Cl,0.38,OCHEM
C=C(C)C(=O)NC(C)C,-1.534,eChemPortal
CCC(COC(=O)CCS)(COC(=O)CCS)COC(=O)CCS,-6.924,eChemPortal
CCOC(=O)C(C)=CC(=O)OC,-1.324,eChemPortal
CC(C)COC(=O)c1ccc(O)cc1,-5.275,eChemPortal
OC/C=C/CO,-2.17,OCHEM
Cn1cc(C(=O)Nc2ccccc2C2CC2C2CC2)c(C(F)F)n1 (stereo not given),-9.312,OCHEM
C=CC(=O)OCC(C)CC (stereo not given),0.114,eChemPortal
CCCCCCCC/C=C\CCCCCCCCNCCCNCCCNCCCN,-6.298,eChemPortal
CN(C)S(=O)(=O)Nc1ccccc1,-6.726,OCHEM
Clc1ccc(CSc2ccc(Cl)cc2)cc1,-4.917,PubChem
CCOP(=O)(Cc1cc(C(C)(C)C)c(O)c(C(C)(C)C)c1)OCC,-7.886,eChemPortal
CCC(C)C=O (stereo not given),1.756,eChemPortal
CCCCC(CC)COC(=O)COc1ccc(Cl)cc1C (stereo not given),-4.694,eChemPortal
CCCOc1ccc(C2=CCC([C@H]3CC[C@H](CCC)CC3)CC2)c(F)c1F (some centres not stated),-8.64,eChemPortal
COc1ccc(C(=O)O)cc1,-5.103,eChemPortal

Repeated from above, the 5 entries with the highest log vapor pressure:

| SMILES | log vapor pressure (log10 mmHg) | via |
|---|---|---|
| CCC(C)C=O (stereo not given) | 1.756 | eChemPortal |
| COC(=O)C=C(C)C | 1.176 | eChemPortal |
| FC(F)(F)C(F)(F)C(F)(F)N(C(F)(F)C(F)(F)C(F)(F)F)C(F)(F)C(F)(F)C(F)(F)F | 0.588 | eChemPortal |
| COC(=O)c1cc(Cl)ccc1Cl | 0.38 | OCHEM |
| C=CC(=O)OCC(C)CC (stereo not given) | 0.114 | eChemPortal |